Measurements: US20210181182A1, “METHOD FOR IDENTIFICATION OF PERTURBAGENS OF PARTICULAR BIOLOGICAL PROCESSES AND CELL SYSTEMS WITHIN LIVING CELLS” (priority 2018, published 2021)

Legend:
HDAC = test: FACTORIAL assay: similarity of TFAP to the consensus HDAC inhibitor TFAP; assay type: cell-based, human
[1] = in humans; cited from earlier work

Row | Compound | retrieved by querying the Attagene dataset with the HDAC TFAP (HDAC) | maximum plasma concentration [1]
1 | CC(C)CC(=O)O [isovaleric acid] | retrieved | 
2 | CCc1ccc(CCOc2ccc(CC3SC(=O)NC3=O)cc2)nc1 (centres unmarked) [pioglitazone] |  | 2.9 µM
